In US6583180B2, “Glucocorticoid receptor modulators” (Abbott Laboratories, priority 2001, dated 2003):

The molecules below were run against T1, Human glucocorticoid receptors (Homo sapiens, UniProt P04150) (assay: Radioligand filter binding assay, displacement of 3[H]-dexamethasone from hGR). Details: read-out: GR Binding (% Inhibition at 1.7 μM).
T1 construct: made in house; host or cells: Sf9 insect cells, recombinant baculovirus (BAC-TO-BAC)
T1 sequence (P04150 1-777): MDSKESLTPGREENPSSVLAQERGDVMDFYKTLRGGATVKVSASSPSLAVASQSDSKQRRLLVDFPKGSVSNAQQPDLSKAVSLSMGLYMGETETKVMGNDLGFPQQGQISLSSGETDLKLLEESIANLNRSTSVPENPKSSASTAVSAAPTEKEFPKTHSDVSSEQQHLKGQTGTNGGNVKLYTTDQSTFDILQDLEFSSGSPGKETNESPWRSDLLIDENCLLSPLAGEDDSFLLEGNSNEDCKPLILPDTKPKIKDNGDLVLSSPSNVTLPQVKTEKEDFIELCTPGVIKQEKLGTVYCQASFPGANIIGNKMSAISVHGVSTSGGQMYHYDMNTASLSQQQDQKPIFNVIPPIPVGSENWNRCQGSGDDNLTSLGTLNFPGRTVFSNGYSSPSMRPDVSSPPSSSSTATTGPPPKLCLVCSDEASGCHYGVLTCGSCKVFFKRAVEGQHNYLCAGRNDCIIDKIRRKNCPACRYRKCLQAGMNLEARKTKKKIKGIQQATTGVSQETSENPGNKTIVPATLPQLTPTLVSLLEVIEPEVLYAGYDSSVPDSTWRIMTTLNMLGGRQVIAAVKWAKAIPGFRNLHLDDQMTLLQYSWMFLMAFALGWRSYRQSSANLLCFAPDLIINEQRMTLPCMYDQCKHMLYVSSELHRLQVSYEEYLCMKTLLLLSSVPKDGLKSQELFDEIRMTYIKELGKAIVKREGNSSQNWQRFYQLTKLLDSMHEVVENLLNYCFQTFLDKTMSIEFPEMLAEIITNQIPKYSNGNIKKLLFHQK

Compound	inhibition at 1.7 µM [%]
Cc1c(NS(C)(=O)=O)cccc1N(Cc1ccc(Oc2ccc(F)c(OCC(=O)O)c2)cc1)Cc1ccc(F)cc1F [Example 305, (5-(4-(((2,4-difluorobenzyl)(2-methyl-3-((methylsulfonyl)amino)phenyl)amino)methyl)phenoxy)-2-fluorophenoxy)acetic acid]	96.6
Cc1c(NS(C)(=O)=O)cccc1N(Cc1ccc(Oc2ccc(CCC(=O)O)cc2)cc1)Cc1ccc(F)cc1F [Example 50, N-{3-[(4-(4-(2-carboxyethyl)phenoxy)benzyl)(2,4-difluorobenzyl)amino]-2-methylphenyl}methanesulfonamide]	92.9
Cc1c(NS(C)(=O)=O)cccc1N(Cc1ccccc1)Cc1ccc(Oc2ccc(OC[C@@H]3C[C@@H](O)CC(=O)O3)cc2)cc1 [Example 235, N-(3-(benzyl(4-(4-(((2S, 4R)-6-oxo-4hydroxytetrahydro-2H-pyran-2-yl)methoxy)phenoxy)benzyl)amino)-2-methylphenyl)methanesulfonamide]	96.7
Cc1c(NS(C)(=O)=O)cccc1N(Cc1ccccc1)Cc1ccc(Oc2ccc(CCCC(=O)NCC(=O)O)cc2)cc1 [Example 107, N-[4-(4-{4-[(benzyl{2-methyl-3-[(methylsulfonyl)amino]phenyl}amino)methyl]phenoxy}phenyl)butanoyl]glycine]	95.9
Cc1c(NS(C)(=O)=O)cccc1N(Cc1ccccc1)Cc1ccc(Oc2ccc(OCCCC(=O)NCCCC(=O)O)cc2)cc1 [Example 253, 4-{[4-(4-{4-[(benzyl{2-methyl-3-[(methylsulfonyl)amino]phenyl}amino)methyl]phenoxy}phenoxy)butanoyl]amino}butanoic acid]	93.2
Cc1c(NS(C)(=O)=O)cccc1N(Cc1ccccc1)Cc1ccc(Oc2cccc(OCCCC(=O)O)c2)cc1 [Example 116, 4-(3-{4-[(benzyl{2-methyl-3-[(methylsulfonyl)amino]phenyl}amino)methyl]phenoxy}phenoxy)butanoic acid]	95.3
Cc1c(NS(C)(=O)=O)cccc1N(Cc1ccccc1)Cc1ccc(Oc2cccc(OCC(=O)O)c2)cc1 [Example 62, (3-{4-[(benzyl{2-methyl-3-[(methylsulfonyl)amino]phenyl}amino)methyl]phenoxy}phenoxy)acetic acid]	89.1
